According to the supplement of paper PMC9446081:
The hits were mostly taken out for another list; the other results follow.

What follows are compounds tested on Escherichia coli K-12 BW25113 (assay: relative growth (OD600 normalised to plate interquartile mean) (fraction); higher = less growth inhibition, active = 0.2 or less). Settings: 50 µM; LB; incubation time: overnight (16-24 h).
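Note: Wild-type cells incubated without shaking, value is the mean of two biological replicates.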

Compound	relative growth
COc1cc(Br)c(C[N+]2(CCOCC[C@H]3CC[C@@H]4C[C@H]3C4(C)C)CCOCC2)cc1OC	inactive: 0.946
COc1c2ccccc2nc2occc12	inactive: 0.697
c1ccc(-c2ccccn2)cc1	inactive: 0.993
